Values quoted from earlier work, collected in paper PMC5812454 (Nanomedicine : nanotechnology, biology, and medicine, 2016).

Tested on: HER2-positive breast cancer
Conditions: trastuzumab itself; ref [4]; cited from earlier work

## trastuzumab: humanized anti-HER2/neu monoclonal antibody trastuzumab (Herceptin; Genentech, Inc.)
  tumor growth inhibition (in words): substantial degree of inhibition
